From PubChem BioAssay
Only some compounds are listed: those with a hit (about 13% of all), similar ones and a draw of the others.
ALDH1A1 inh – blocks purified human ALDH1A1 activity; 220,000 tested, 7.3% active; Potency, µM (top dose mostly 75.3 µM), most hits filed as inhibitors; P00352; AID 1030; Purified ALDH1A1, NADH fluorescence, propionaldehyde substrate; active = well fitted inhibition curve with a large enough effect, not every such curve was filed as active; inconclusive = small, poorly fitted or top-dose-only effect, or another doubt; inactive = no such curve, though single readings can be large or run the other way
Sfp inh – inhibitors of Bacillus subtilis Sfp phosphopantetheinyl transferase; Q9F4F7; Biochemical Sfp PPTase activity, qHTS; Potency, µM, hits mostly inhibitors; 310,000 tested, 3.5% active;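 also: the enzyme is Sfp with the accession as filed and its product quenches rhodamine fluorescence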
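Step 1, compound plus 15 nM Sfp-PPTase, 15 min, room temperature. Step 2, add rhodamine-CoA (5 uM) and BHQ-2-YbbR (12.5 uM). Step 3, read 525/598 nm fluorescence at 0 and 30 min.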
G9a block – inhibitors of human histone lysine methyltransferase G9a; Q96KQ7; G9a H3K9 monomethylation, AlphaScreen, 2 h; Potency, µM (series often up to 102 µM), most hits filed as inhibitors; 350,000 tested, 8.8% active; also: nearly all actives have a fitted effect of over 75% in size
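AlphaScreen detection with an anti-monomethyl H3K9 antibody quantified product after a 2 h room-temperature reaction containing 500 nM biotinylated H3K9 peptide, 20 µM SAM and 20 nM enzyme, which had been preincubated 15 min with compound.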
Lamin A splicing – modulators of lamin A splicing; HeLa LMNA splicing GFP/RFP minigene ratio, 48 h; Potency, µM (titrated, usually from 46.1 µM), most hits filed as inhibitors; 200,000 tested, 0.01% active; active = well fitted inhibition curve with a large enough effect in the signal ratio, with a control signal flat, not every such curve was filed as active; inconclusive = small, poorly fitted or top-dose-only effect, or effect the other way, or a change in a side signal; the % refers to the signal ratio
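S3 HeLa stable clones carrying a lamin A-EGFP splicing minigene plus DsRed2 were seeded at 600 cells/well in Opti-MEM with 2% FBS, pin-dosed and incubated 48 h at 37°C. Acumen cytometry (488 nm) gave the GFP/RFP total-intensity ratio.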
miR-21 reporter – miR-21 reporter, rising signal | HeLa miR-21 FLuc reporter, luciferase, 48 h | Potency, µM (top dose mostly 38.3 µM) | 340,000 tested, under 10 active | AID 2288; active = well fitted rising curve with a large enough effect; inconclusive = small, poorly fitted or top-dose-only effect; inactive = no such curve, though single readings can be large or run the other way;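 further: miR-21 action dims this reporter so a rising signal means less miR-21 action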
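HeLa cells endogenously expressing miR-21, stably carrying CMV-driven firefly luciferase with a downstream miR-21 binding site, 2000 cells/well. Titrations up to approximately 40 uM, 48 hours; luciferase luminescence read.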
KDM4E inh – blocks human JMJD2E demethylase activity | B2RXH2 | JMJD2E catalytic domain, FDH-coupled NADH fluorescence (FDH is formaldehyde dehydrogenase) | Potency, µM (doses to about 57.1 µM), most hits filed as inhibitors | 230,000 tested, 1.6% active | AID 2147; active = well fitted inhibition curve with a large enough effect, not every such curve was filed as active; inconclusive = small, poorly fitted or top-dose-only effect, or another doubt; inactive = no such curve, though single readings can be large or run the other way; also: nearly all actives have a fitted effect of over 50% in size
Numbers stand for hits; - = inactive; ? = inconclusive; . = no result; [ ] = dose if it differs, or a comment. Unless noted, calls follow the shape of the dose curve; as a rule, active = well fitted curve in the direction sought with a large enough effect; inconclusive = small, poorly fitted or top-dose-only effect, or another doubt; inactive = no such curve, though single readings can be large; an effect the other way counts as inactive or inconclusive.

SMILES	ALDH1A1 inh	Sfp inh	G9a block	Lamin A splicing	miR-21 reporter	KDM4E inh
Cc1ccc(-n2c(O)c(C=Nc3ccccc3-c3n[nH]c(=S)[nH]c3=O)c3ccccc3c2=O)cc1C	3.55µM	-	?	.	-	-
CCOc1ccc(NC(=O)NC(CC)Cn2nnc3ccccc3c2=O)cc1 (configuration not stated)	.	.	-	.	-	.
Cc1cccc(OC(=O)c2cc(-c3ccc4c(c3)OCCO4)on2)c1	.	.	-	?	-	.
Cc1ccc(NC(=O)c2ccccc2Br)c(C(=O)c2ccccc2)c1	.	.	-	.	-	.
COc1ccc(-n2nc(C(=O)Nc3ccccn3)c3c4ccccc4n(C)c3c2=O)cc1	.	.	-	.	-	.
Cc1cc(/C([O-])=C(/C(=S)Nc2ccc(F)cc2)[n+]2ccccc2)c(C)n1-c1ccc(F)cc1	-	?	?	?	-	-
Cc1ccc(-n2c(C)cc(/C([O-])=C(/C(=S)Nc3ccc(F)c(Cl)c3)[n+]3ccccc3)c2C)cc1	?	56.2µM	?	?	-	-
Cc1cc(/C([O-])=C(/C(=S)Nc2ccc(F)cc2)[n+]2ccccc2)c(C)n1Cc1ccccc1Cl	?	-	?	-	-	?
Cc1cc(/C([O-])=C(/C(=S)Nc2ccccc2)[n+]2ccccc2)c(C)n1-c1ccccc1	?	-	50.1µM	-	-	-
CC1SC(c2cccc(Cl)c2)NC1=O (configuration not stated)	11.2µM	?	?	-	-	-
Cc1nc(NCCc2ccccc2)c2oc3ccccc3c2n1	?	-	79.4µM	?	-	?
Cc1nc(SCC(=O)Nc2ccc(F)cc2)c2oc3ccccc3c2n1	-	-	-[2.33 µM]	-	-	-
Cc1nc(SCC(=O)Nc2ccccc2)c2oc3ccccc3c2n1	?	-	-	-	-	?
CNC(=O)C(Sc1nc(C)nc2c1oc1ccccc12)C(C)=O (configuration not stated)	12.6µM	50.1µM	17.8µM	-	-	-
Cc1nc(SCc2cccc(F)c2)c2oc3ccccc3c2n1	.	39.8µM	-	.	-	-
CCOc1ccc(OCC)c(NC(=O)c2cnn(-c3ccc(F)cc3)c2C2CCN(C(=O)OC(C)(C)C)CC2)c1	.	.	?	?	-	.
CCOc1cc(N2CCOCC2)c(OCC)cc1NC(=O)CN1C(=O)C2C3C=CC(C3)C2C1=O (configuration not stated)	-	-	-	-	-	-
C=CCN1C(=O)NC(c2ccc(OC)cc2)(C(F)(F)F)S/C1=C(\C#N)c1nnc(N2CCOCC2)n1-c1ccccc1 (configuration not stated)	?	-	-	?	-	-
C=CCN1C(c2ccccc2)=CS/C1=C(\C#N)c1nnc2n1CCCCC2	17.8µM	63.1µM	?	?	-	-
N#C/C(=C(/O)COc1ccccc1)c1nnc2n1CCCCC2	7.94µM	?	?	.	-	?
C=CCN1C(c2cccc(C(F)(F)F)c2)=CS/C1=C(/C#N)c1nnc(N2CCOCC2)n1-c1ccccc1	14.1µM	-	79.4µM	?	-	-
C=CCN1C(c2ccc(Br)cc2)=CS/C1=C(/C#N)c1nnc(N2CCOCC2)n1-c1ccccc1	3.16µM	79.4µM	?	?	-	?
CCOc1ccc(C2=CS/C(=C(\C#N)c3nnc4n3CCCCC4)N2CC)cc1	?	-	-	?	-	-
Cc1ccc(OCc2nnc(SC(C)C(=O)O)n2-c2ccccc2)cc1 (configuration not stated)	.	-	.	.	-	.
CCOc1ccccc1NC(=O)N1CCc2c(sc3c2CCCC3)C1c1ccccc1 (configuration not stated)	.	.	-	-	-	.
SMILES	ALDH1A1 inh	Sfp inh	G9a block	Lamin A splicing	miR-21 reporter	KDM4E inh
Cc1ccc(Cl)cc1N1CCN(C(=O)CCCn2c(=O)[nH]c3ccc(Br)cc3c2=O)CC1	.	.	-	.	?	.
COc1ccccc1N1CCN(C(CNS(C)(=O)=O)c2cccnc2)CC1 (configuration not stated)	10µM	-	-	-[9.22 µM]	-	-
CCCS(=O)(=O)c1c(S(=O)(=O)CCC)c2cnccn2c1C(=O)c1ccc(OC)cc1	.	-	50.1µM	.	-	-
CCCS(=O)(=O)c1c(S(=O)(=O)CCC)c2cnccn2c1C(=O)c1ccc(CC)cc1	?	-	-	-	-	-
Cc1ccc(SCCN2CCN(C)CC2)cc1	.	-	50.1µM	.	-	.
COc1ccccc1N(Cc1ccccc1)S(=O)(=O)c1cccc(C(=O)Nc2ccc(C)cn2)c1	.	.	-	.	.	.
COc1cc2[nH]c(=S)n(C3CC3)c(=O)c2cc1OC	28.2µM	-	17.8µM	-	-	-
COc1cc2[nH]c(=S)n(CC3CCCO3)c(=O)c2cc1OC (configuration not stated)	7.94µM	-	?	-	-	-
CCOc1cc2[nH]c(=S)n(CC3CCCO3)c(=O)c2cc1OCC (configuration not stated)	2.51µM	-	?	-	-	-
COc1ccc(CNC(=O)c2c3c(nc4ccccc24)C(=O)N(C2CCCCC2)C3)cc1	.	.	-	-	-	.
COc1ccc(-c2cc(=O)n(-c3nc4ccccc4[nH]3)[nH]2)cc1	-	-	79.4µM	?	-	?
COc1ccc(-c2nc3ccccc3[nH]2)cc1	?	-	-	-	-	?
COc1ccc(-n2c(=O)cnc3cnc(N4CCOCC4)nc32)cc1	-	-	-[0.501 µM]	-	.	.
COc1ccc(C(=O)NCC(c2ccco2)S(=O)(=O)c2cccs2)cc1 (configuration not stated)	.	.	-	-	-	.
CCOC(=O)c1sc(=S)sc1SCc1cccc(C(F)(F)F)c1	?	-	31.6µM	-	-	-
COc1ccc2c(CNCCc3cccs3)c(C(=O)O)n(Cc3ccccc3C)c2c1	.	.	-	.	-	.
COc1cccc(-c2oc3ccc(C)cc3c(=O)c2O)c1	.	.	-	.	-	.
O=C(NCCCN1CCOCC1)C(=O)N/N=C/c1ccccc1O	.	-	-	.	-	11.2µM
CC(C)c1ccc(/C=N/NC(=O)C(=O)NCCCN2CCOCC2)cc1	14.1µM	-	-	-	-	-
O=C(Nc1nnc(SCc2ccccc2)s1)c1cccc([N+](=O)[O-])c1	-	-	79.4µM	?	-	-
O=C(Nc1nnc(CSCc2ccccc2F)s1)c1cccc([N+](=O)[O-])c1	25.1µM	-	-	?	-	-
O=C(Nc1nnc(SCc2ccc(F)cc2)s1)c1ccc2c(c1)C(=O)N(c1ccccc1Cl)C2=O	1.26µM	-	?	.	-	-
Cc1nnc(SCc2cccc([N+](=O)[O-])c2)s1	?	-	.	?	-	-
CC(C)C(=O)Nc1nnc(CSCc2ccccc2F)s1	-	-	-	-	-	-
N#C/C(=C/c1ccc(-c2ccccc2[N+](=O)[O-])o1)C(N)=O	-	-	-	.	-	-
